Literature values, collected in patent publication US20060229299A1, “5ht2c Receptor antagonists in the treatment of schizophrenia” (priority 2003, published 2006).

Chains of the proteins cited; added tags and fusions are not shown.
UniProt P28223, whole entry: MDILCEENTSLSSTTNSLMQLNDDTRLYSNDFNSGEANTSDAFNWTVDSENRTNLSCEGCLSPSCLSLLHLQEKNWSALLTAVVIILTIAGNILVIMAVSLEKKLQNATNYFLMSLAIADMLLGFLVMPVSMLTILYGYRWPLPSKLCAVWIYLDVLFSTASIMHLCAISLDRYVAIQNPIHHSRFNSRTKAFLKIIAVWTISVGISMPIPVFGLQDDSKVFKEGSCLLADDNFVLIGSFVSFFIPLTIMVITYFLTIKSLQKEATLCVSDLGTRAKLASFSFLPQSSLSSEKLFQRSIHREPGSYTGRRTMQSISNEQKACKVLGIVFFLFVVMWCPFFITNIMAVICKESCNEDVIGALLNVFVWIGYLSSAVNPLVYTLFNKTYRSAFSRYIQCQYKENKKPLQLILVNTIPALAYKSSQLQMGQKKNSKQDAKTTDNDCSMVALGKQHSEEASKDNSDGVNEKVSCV
UniProt P21917, whole entry: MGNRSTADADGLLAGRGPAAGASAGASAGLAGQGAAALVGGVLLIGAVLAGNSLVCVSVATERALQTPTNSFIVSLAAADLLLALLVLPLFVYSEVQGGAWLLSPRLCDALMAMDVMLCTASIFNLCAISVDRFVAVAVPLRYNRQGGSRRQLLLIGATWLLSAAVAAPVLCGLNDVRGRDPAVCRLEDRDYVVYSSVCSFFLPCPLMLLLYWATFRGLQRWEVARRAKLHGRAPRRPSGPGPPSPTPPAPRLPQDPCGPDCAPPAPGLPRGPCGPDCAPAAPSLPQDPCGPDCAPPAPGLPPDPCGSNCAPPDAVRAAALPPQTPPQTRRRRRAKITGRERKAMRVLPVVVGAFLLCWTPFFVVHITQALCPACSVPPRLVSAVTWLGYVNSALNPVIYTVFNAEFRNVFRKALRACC
UniProt P35367, whole entry: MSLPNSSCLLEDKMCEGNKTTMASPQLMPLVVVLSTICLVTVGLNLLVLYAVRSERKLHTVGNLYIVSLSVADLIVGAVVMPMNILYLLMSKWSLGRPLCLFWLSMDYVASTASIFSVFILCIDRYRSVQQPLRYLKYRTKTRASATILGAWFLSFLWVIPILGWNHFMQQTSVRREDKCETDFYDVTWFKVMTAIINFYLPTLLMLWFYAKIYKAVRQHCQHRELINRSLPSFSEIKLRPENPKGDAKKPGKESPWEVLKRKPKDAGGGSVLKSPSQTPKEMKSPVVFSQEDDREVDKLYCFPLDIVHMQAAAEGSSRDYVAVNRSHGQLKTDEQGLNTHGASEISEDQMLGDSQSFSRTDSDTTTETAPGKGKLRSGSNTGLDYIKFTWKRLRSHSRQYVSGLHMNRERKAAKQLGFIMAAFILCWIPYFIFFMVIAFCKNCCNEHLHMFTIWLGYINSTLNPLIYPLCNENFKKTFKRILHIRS

How the values were obtained:
5-HT2A receptor = 5-HT2A receptor (Homo sapiens, UniProt P28223); conditions: Table 3; expressed as pKi or pKd values; known affinities; cited from earlier work
D4 dopamine receptor = D4 dopamine receptor (Homo sapiens, UniProt P21917); conditions: cited from earlier work
H1 histamine receptor = H1 histamine receptor (Homo sapiens, UniProt P35367); conditions: expressed as KD; cited from earlier work

Compound	5-HT2A Affinity (5-HT2A receptor)	D4 affinity value (−logKi) (D4 dopamine receptor; human)	other results
CO[C@H]1CC[C@H](OC(=O)[C@@H]2C[C@@H]3c4cccc5c4c(cn5C(C)C)C[C@H]3N(C)C2)CC1 (relative stereo) [Sergolexole, [trans(8β)]6-methyl-1-[1-methylethyl]ergoline-8-carboxylic acid, 4-methoxycyclohexyl ester (maleate salt)]	7.2		
CC(C)n1cc2c3c(cccc31)[C@H]1C[C@@H](C(=O)NC3CCCCC3)CN(C)[C@@H]1C2 [Amesergide, N-cyclohexyl-1-isopropyl-6-methyl-ergoline-8-carboxamide]	7.8		
CCN1CCCC1CNC(=O)c1cc(S(N)(=O)=O)ccc1OC (stereo not drawn) [Sulpiride]		7.3^12	
CN1CCN(CC/C=C2/c3ccccc3Sc3ccc(S(=O)(=O)N(C)C)cc32)CC1 [Thiothixene]			H1 affinity value (−log KD) (H1 histamine receptor): 8.2^16
O=C1Cc2cc(CCN3CCN(c4nsc5ccccc45)CC3)c(Cl)cc2N1 [Ziprasidone]		7.4^6	D4 affinity value (−logKi) (D4 dopamine receptor): 7.5^14

Counter-ions that a name gives are not always drawn. Like-named read-outs stand apart in the source and are kept apart here.
